The values below come from patent US20230235286A1, “MRNA TRANSFECTION OF IMMUNE CELLS” (Carisma Therapeutics Inc., priority 2020, published 2023).

Data set [1] has as its system human macrophages. Nature of the data set: Viability of macrophages electroporated or transfected with CAR mRNA (FACS). The class given is cell-based. The conditions noted are these: day 7. As for the experimental part:
In exemplary methods of the present disclosure, fresh or thawed human macrophages were thawed and cultured at 37° C. overnight one day prior to electroporation. Macrophages were collected and washed with PBS. Viable cells were counted with the NC200. For macrophages transfected using a Neon Transfection System, 50 nM-300 nM of mRNA per 1e+6 macrophages were mixed on ice in electroporation buffer. Macrophages were electroporated with a Neon Transfection System or with a Maxcyte Electroporation system. Cells were kept on ice after for 10 minutes after the electroporation. Cells were collected, counted, and cultured in macrophage culture media for further use. […]
Viability was assessed using Live/Dead Fixable Aqua Dead Cell Staining Kit (Thermo) or similar reagents. Additionally, cell viability was assessed using the NC-200 (Chemometec).
Donor macrophages (HC153444) were differentiated from CD14+ monocytes and the macrophages were transfected with mRNA encoding a CAR (CAR mRNA) using electroporation or transfection. mRNA encoding a CAR comprising a HER2 extracellular domain and a CD3zeta intracellular domain was used. CAR expression and cell viability were detected by FACS on day 1.
Human macrophages were electroporated with HER2 CAR mRNA comprising m6AGCap1 and PsU modifications. […] CAR expression and M1 marker expression were measured on days 2 and 7 after transfection. […]

The test system of data set [2] is human macrophages. Nature of the data set: CAR expression on macrophages by flow cytometry. Type of data set: cell-based. The settings on record: for CAR expression: versus control media, IFN-α or IFN-γ. On the technique in general: A flow cytometer gives signals particle by particle.
The subject of data set [3] is HER2+ breast cancer cells (CRL2351). Briefly: Co-culture cancer cell killing assay with CAR macrophages (Incucyte). Type of data set: cell-based, human. As for the experimental part: Target cells such as HER2+ breast cancer cells (CRL2351) or HER2+ ovarian cancer cells stably expressing NucLight Green GFP (Sartorious #4475) were used. Additional cell lines were evaluated that expressed the cognate antigen targeted by the CAR, as described within below. CAR macrophages were co-cultured with target cells at indicated ratios for indicated periods of time. To quantify an anti-tumor effect in vitro, the relative numbers of target cancer cells were measured using the Incucyte live imaging microscope (Sartorius) which monitors the green fluorescent intensity of cultured wells roughly every one hour. The anti-tumor activity of CAR macrophages was compared to control macrophages or target cells alone. Graphpad Prism was used to graph data and perform statistical analysis.
(§1) After the transfection of CAR mRNA, macrophages were cultured in macrophage culture media with 10-300 ng/mL of recombinant human IFN-α, IFN-β, or IFN-γ (peprotech) for 4 to 24 hours, as indicated. IFN containing media was washed off after the indicated time. IFN-primed CAR macrophages were used for further analysis.
Macrophages were treated with 0-10 µM sunitinib (an RNAse-L inhibitor) for 2 hours prior to mRNA electroporation or transfection. The level of expression and persistence of expression of the encoded transgene was assessed using methods described above.
Human macrophages were differentiated from CD14+ monocytes and the macrophages were electroporated with mRNA encoding a HER2 CAR (CAR mRNA). […] CRL2351 cell growth was monitored every four hours by its fluorescence.
Human macrophages were electroporated with HER2 CAR mRNA comprising m6AGCap1 and PsU modifications. […] CAR expression and M1 marker expression were measured on days 2 and 7 after transfection. […] Cancer cell growth was monitored via its fluorescence on an Incucyte live imaging microscope every four hours. […]
Five different mRNA modifications were also tested to determine if interferon treatment differentially affected macrophages transfected with mRNA comprising different modifications. […] CAR expression and M1 markers were detected by Flow Cytometry (Attune) on day four after electroporation. […] Cancer cell growth was monitored via its fluorescence on an Incucyte live imaging microscope every four hours.
To evaluate the anti-tumor function of macrophages transfected with mRNA encoding a HER2 CAR with or without priming with IFN-β, untransduced (UTD) or CAR macrophages were primed with 0, 3, 10, 30, or 100 ng/mL IFN-β for 4 hours or 20 hours. These effector cells were then co-cultured with the HER2+ breast cancer cell line CRL2351-GFP at an effector to target ratio of 3:1 or 1.5:1 and anti-tumor activity was measured based on GFP expression using an Incucyte live imaging microscope. […]

For data set [4], the system named is human macrophages. Nature of the data set: Cytokine secretion of CAR macrophages co-cultured with HER2+ breast cancer cells (MSD). Type of data set: cell-based. The conditions noted are these: supernatant 48 hours after co-culture, E:T 3:1. From the text:
(§2) M1/M2 markers on primary human macrophages were detected with the following panel: Anti-CD11B PE (Biolegend, 301306), Anti-CD80 BV605 (Biolegend, 305225), Anti-CD86 BV711 (Biolegend, 305440), Anti CD206 BV421 (Biolegend, 321126), Anti CD163 APC-CY7 (Biolegend, 333622), anti HLA-DR BV785 (Biolegend, 307642), Anti HLA ABC PE/CY7 (Biolegend, 311430) and Live/Dead Fixable Aqua Dead Cell Stain Kit. Cytokine production (IL12, IFN-γ, TNF-α, IL6, IL8, IL1b, MCP-1, IL10, IL4, IL13, and other human cytokines) was evaluated in supernatant collected from macrophages (control or CAR) treated as described below using the MSD instrument per manufacturers recommendations (Meso Scale Discovery). In some cases, macrophages were co-cultured with antigen-bearing target cells at indicated effector to target ratios.
To evaluate whether interferon treatment of macrophages improved other anti-tumor functions, the cytokine secretion of interferon treated or untreated mRNA transfected HER2 CAR macrophages after co-culture with HER2+ breast cancer cells was evaluated. Human macrophages were electroporated with 150 nM HER2 CAR mRNA comprising m6AGCap1 and PsU modifications. […] Supernatant was collected 48 hours after the cancer cells and macrophages were co-cultured and cytokine levels were measured using a Meso Scale Discovery (MSD) instrument.

Data set [5] deals with human macrophages. Nature of the data set: M1/M2 marker expression on CAR macrophages by flow cytometry. The class given is cell-based. As for the experimental part:
as §1, §2
Human macrophages were electroporated with HER2 CAR mRNA comprising m6AGCap1 and PsU modifications. Cells were cultured with cytokines that induce an M1 phenotype such as IFN-alpha, IFN-beta, IFN-gamma, IFN-gamma plus lipopolysaccharide (LPS), TNF-alpha, IL-6 or a STING ligand (STING-L) for up to 48 hours and then cytokines were washed off and fresh media was added. CAR expression and M1 marker expression were measured on days 2 and 7 after transfection. Fluorescent labeled HER2+ breast cancer cells (CRL2351) were co-cultured with HER2 CAR macrophages two days after the macrophages were transfected. Cancer cell growth was monitored via its fluorescence on an Incucyte live imaging microscope every four hours. The Effector (CAR macrophage) to Target (cancer cell) ratio was 5:1.
In order to validate the effect of IFN-β treatment on improved CAR expression, and to optimize the IFN-β concentration, macrophages transfected with M6AGCap1/PsU modified mRNA were treated with 0, 3, 10, 30, or 100 ng/mL IFN-β for 4 hours and the viability, CAR percentage, and CAR MFI were evaluated on day 4 and day 7 post electroporation.
Given that macrophage phenotype is considered plastic, and immunosuppressive cytokines such as IL-10 are known to induce an M2 phenotype, the impact of IL-10 treatment on IFN-β treated or untreated HER2 CAR mRNA transfected macrophages was evaluated.
Additional studies were performed to determine if treatment with interferons could further improve CAR mRNA persistence in macrophages and if CAR macrophage functionality could be extended. Human macrophages were electroporated with 300 nM CAR mRNA comprising m6AGCap1 and PsU modifications. Cells were cultured with 20 ng/mL IFNs for 24 hours and then the cells were washed to remove cytokines. CAR expression was detected by Flow Cytometry (Attune) on day 2 after transfection. Cells were then co-cultured with a Nuc-Light labeled, HER2+ breast cancer cell line (CRL2351) at the Effector to Target ratio of 3:1. Cancer cell growth was monitored via its fluorescence on an Incucyte live imaging microscope. CAR expression and M1 markers in macrophages were detected by Flow Cytometry (Attune) on day 7 after transfection.

Setting [6] is: 48 hours and 7 days post-treatment with IL-10.
The mark [7] stands for this setting: mRNA transfected CAR macrophages.

As for “IFN-β: recombinant human IFN-β (peprotech), cytokine used to prime CAR macrophages”, the cell viability entry in the data set with human macrophages [1] is recorded as “increased cell viability”. Also, the “effect on CAR expression by human macrophages” value in the data set with human macrophages [2] (0, 3, 10, 30 or 100 ng/mL for 4 hours, day 4 and day 7) is on record as “dose-dependent effect”. The CAR expression entry in the data set with human macrophages [2] (day 2) is recorded as “higher CAR expression”. Further, the “number of CARs expressed per cell based on CAR MFI” value with human macrophages [2] (day 4, all mRNA modifications evaluated) is on record as “marked increase”. For the same substance, the “percentage of cells expressing CAR” value with human macrophages [2] (day 4, all modifications) is listed as “modestly improved”. Moreover, in the data set with human macrophages [2] (day 7), the “HER2 CAR expression” value is given as “highest level of CAR by a significant margin” and the CAR expression result is reported as “higher CAR expression”. Moreover, in the data set with human macrophages [2] (day 7, m6AGCap1/PsU mRNA, versus not treated with IFN-β), the CAR expression rate result was “significantly improved”. Further, the “cancer cell killing, comparison of interferons” value in data set [3] (M6AGCap1/PsU mRNA, IFN-alpha, beta or gamma) is “best cancer cell killing”. In data set [3] (killing assay 7 days post-electroporation), the “cancer killing (decrease in tumor growth)” value was “highest level of cancer killing”. The “anti-tumor activity of CAR macrophages” value in data set [3] (priming 0-100 ng/mL for 4 or 20 hours, E:T 3:1 or 1.5:1) is reported as “improved ability for CAR macrophages to kill cancer cells”. The “anti-tumor activity of CAR macrophages across mRNA modifications” value in data set [3] (with or without IFN-β treatment) is on record as “improved anti-tumor activity for all CAR macrophages except those transfected with 5moU mRNA”. For the same substance, in the data set on human macrophages [4], the cytokine secretion entry was “increased secretion of the cytokines IL-6, IL-8 and TNFα”. Besides, the “induction of M1 markers CD80, CD86, and HLA-DR” value in the data set on human macrophages [5] (0, 3, 10, 30 or 100 ng/mL) is given as “dose-dependent”. In the data set with human macrophages [5] (setting [6]), the “M1 marker CD86 after IL-10 treatment” value is listed as “retaining expression of the M1 marker CD86” and the “M2 marker CD163 after IL-10 treatment” value was “did not express the M2 marker CD163”. In the data set on human macrophages [5] (CD86 expression), the “M1 phenotype, comparison of the interferons evaluated” value is given as “strongest M1 phenotype” and the “persistence of M1 phenotype post treatment” value is listed as “at least 7 days”. In addition, the “response to other M2 inducing factors” value in the data set on human macrophages [5] (IFN-β primed CAR macrophages) was “resisted other M2 inducing factors”. The “expression of M1 markers CD80, CD86 and HLA-DR” value in the data set on human macrophages [5] (day 7, relative to no interferon) is on record as “increased”. Also, in the data set on human macrophages [5] (setting [7]), the “M1 phenotype based on CD86 expression” value is listed as “induction of an M1 phenotype” and the “M2 markers based on CD163 expression” value is “reduction of M2 markers”.
